Measured values from article PMC13064811, “The Role of Disulfide Bonds in the GluN1 Subunit in the Early Trafficking and Functional Properties of GluN1/GluN2 and GluN1/GluN3 NMDA Receptors” (The Journal of Neuroscience, 2026).

The chains behind the UniProt entries cited, without tags or fusion partners. Where a name states a change or a piece, a line headed by the entry shows the natural chain unless it says otherwise. Residues count along the entry.
UniProt Q00960, 27-1482: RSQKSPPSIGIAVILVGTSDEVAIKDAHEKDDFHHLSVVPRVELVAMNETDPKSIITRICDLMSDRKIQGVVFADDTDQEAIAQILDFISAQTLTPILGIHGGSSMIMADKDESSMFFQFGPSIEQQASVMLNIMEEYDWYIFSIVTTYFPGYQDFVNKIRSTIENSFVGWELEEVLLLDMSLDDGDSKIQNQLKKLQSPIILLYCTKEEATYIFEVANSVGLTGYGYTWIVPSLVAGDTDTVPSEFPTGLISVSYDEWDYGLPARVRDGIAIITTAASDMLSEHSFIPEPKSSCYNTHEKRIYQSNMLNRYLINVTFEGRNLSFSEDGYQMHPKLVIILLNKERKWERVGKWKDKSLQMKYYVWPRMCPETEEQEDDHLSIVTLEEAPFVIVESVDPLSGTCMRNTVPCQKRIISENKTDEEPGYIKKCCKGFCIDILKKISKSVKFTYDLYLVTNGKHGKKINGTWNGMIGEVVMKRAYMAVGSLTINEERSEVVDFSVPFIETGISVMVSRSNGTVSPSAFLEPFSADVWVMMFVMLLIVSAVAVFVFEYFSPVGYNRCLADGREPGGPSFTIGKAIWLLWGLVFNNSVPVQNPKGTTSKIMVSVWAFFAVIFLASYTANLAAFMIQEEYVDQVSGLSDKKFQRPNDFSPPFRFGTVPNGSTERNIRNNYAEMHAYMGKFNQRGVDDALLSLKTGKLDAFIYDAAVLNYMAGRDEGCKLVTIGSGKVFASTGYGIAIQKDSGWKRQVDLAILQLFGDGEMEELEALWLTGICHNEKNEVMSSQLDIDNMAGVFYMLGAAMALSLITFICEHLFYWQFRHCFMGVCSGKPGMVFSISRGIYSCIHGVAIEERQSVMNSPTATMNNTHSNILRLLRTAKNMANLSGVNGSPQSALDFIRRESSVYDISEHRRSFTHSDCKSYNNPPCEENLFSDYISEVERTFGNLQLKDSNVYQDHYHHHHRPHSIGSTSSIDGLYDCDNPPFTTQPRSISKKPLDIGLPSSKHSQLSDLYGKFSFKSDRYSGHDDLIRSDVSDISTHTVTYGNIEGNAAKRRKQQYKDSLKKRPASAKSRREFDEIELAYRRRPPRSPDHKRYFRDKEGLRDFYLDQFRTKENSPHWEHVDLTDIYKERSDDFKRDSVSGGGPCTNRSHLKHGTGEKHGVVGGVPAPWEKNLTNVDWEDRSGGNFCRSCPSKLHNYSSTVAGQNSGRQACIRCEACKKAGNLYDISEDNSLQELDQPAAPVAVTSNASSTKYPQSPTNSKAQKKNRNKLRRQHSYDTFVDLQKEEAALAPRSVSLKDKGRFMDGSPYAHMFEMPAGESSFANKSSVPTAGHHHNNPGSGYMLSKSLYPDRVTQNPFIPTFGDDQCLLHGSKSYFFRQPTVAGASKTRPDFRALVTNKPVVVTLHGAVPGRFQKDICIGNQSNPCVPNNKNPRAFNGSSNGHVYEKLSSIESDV
UniProt Q00959, 23-1464, stated change not applied: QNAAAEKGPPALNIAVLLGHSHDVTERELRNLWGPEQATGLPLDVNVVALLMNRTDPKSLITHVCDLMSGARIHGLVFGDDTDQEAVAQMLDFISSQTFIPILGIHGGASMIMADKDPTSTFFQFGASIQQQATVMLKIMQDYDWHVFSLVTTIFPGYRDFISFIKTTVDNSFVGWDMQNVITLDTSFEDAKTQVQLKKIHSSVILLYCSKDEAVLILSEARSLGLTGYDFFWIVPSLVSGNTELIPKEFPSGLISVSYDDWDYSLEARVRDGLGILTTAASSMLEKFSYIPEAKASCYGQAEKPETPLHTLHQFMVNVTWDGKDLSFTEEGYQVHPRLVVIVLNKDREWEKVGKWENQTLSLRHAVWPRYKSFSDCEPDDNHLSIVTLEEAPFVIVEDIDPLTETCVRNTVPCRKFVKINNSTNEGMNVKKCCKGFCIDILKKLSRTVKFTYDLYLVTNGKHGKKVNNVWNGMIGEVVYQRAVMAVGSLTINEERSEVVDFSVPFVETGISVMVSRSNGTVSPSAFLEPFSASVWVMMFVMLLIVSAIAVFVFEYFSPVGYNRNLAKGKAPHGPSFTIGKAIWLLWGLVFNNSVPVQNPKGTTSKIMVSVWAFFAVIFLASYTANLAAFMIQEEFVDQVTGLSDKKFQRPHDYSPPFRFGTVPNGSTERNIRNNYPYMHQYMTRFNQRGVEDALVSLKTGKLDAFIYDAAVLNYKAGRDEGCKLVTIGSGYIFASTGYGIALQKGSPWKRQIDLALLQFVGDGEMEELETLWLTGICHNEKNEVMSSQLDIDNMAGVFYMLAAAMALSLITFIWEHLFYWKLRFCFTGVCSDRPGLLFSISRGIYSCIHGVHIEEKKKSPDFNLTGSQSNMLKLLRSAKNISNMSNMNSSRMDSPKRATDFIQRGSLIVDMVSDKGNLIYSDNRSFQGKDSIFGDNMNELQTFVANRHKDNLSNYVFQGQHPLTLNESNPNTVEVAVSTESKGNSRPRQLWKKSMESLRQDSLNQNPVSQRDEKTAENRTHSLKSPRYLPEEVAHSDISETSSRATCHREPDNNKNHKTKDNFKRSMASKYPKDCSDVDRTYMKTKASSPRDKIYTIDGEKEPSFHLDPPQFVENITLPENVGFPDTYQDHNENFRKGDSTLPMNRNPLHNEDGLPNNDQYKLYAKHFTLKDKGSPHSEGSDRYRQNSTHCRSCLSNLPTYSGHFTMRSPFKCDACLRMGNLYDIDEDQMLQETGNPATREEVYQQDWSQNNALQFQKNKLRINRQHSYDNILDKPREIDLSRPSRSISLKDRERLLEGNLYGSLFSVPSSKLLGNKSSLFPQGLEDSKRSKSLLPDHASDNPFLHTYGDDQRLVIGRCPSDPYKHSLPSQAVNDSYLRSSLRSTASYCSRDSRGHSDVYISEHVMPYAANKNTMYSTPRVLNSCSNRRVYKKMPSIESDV

Columns and labels:
[1] = target: YFP-GluN1-1a-C420S-C454S/GluN2B (Rattus norvegicus, UniProt P35439+Q00960, C420S/C454S)
[2] = target: YFP-GluN1-1a-C744S-C798S/GluN2B (Rattus norvegicus, UniProt P35439+Q00960, C744S/C798S)
[3] = target: GluN1-4a-C79S-C308S/GluN2B (Rattus norvegicus, UniProt P35439+Q00960, C308S/C79S)
[4] = target: GluN1-4a-C436S-C455S/GluN2B (Rattus norvegicus, UniProt P35439+Q00960, C436S/C455S)
[5] = target: YFP-GluN1-4a-C436S-C455S/GluN2A (Rattus norvegicus, UniProt P35439+Q00959, C436S/C455S)
[6] = target: GluN1-4a-C420S-C454S/GluN2B (Rattus norvegicus, UniProt P35439+Q00960, C420S/C454S)
YFP-GluN1-1a/GluN2A = YFP-GluN1-1a/GluN2A (Rattus norvegicus, UniProt P35439+Q00959)
[7] = target: GluN1-4a-C436S-C455S/GluN2A (Rattus norvegicus, UniProt P35439+Q00959, C436S/C455S)
[8] = target: GluN1-4a-C744S-C798S/GluN2A (Rattus norvegicus, UniProt P35439+Q00959, C744S/C798S)
YFP-GluN1-1a/GluN2B = YFP-GluN1-1a/GluN2B (Rattus norvegicus, UniProt P35439+Q00960)
[9] = target: YFP-GluN1-1a-C79S-C308S/GluN2B (Rattus norvegicus, UniProt P35439+Q00960, C308S/C79S)
[10] = target: GluN1-4a-C420S-C454S/GluN2A (Rattus norvegicus, UniProt P35439+Q00959, C420S/C454S)
[11] = target: YFP-GluN1-1a-C79S-C308S/GluN2A (Rattus norvegicus, UniProt P35439+Q00959, C308S/C79S)
[12] = target: YFP-GluN1-4a-C436S-C455S/GluN2B (Rattus norvegicus, UniProt P35439+Q00960, C436S/C455S)
GluN1-4a/GluN2A = GluN1-4a/GluN2A (Rattus norvegicus, UniProt P35439+Q00959)
[13] = target: GluN1-4a-C79S-C308S/GluN2A (Rattus norvegicus, UniProt P35439+Q00959, C308S/C79S)
GluN1-4a/GluN2B = GluN1-4a/GluN2B (Rattus norvegicus, UniProt P35439+Q00960)
[14] = target: GluN1-4a-C744S-C798S/GluN2B (Rattus norvegicus, UniProt P35439+Q00960, C744S/C798S)
[15] = target: YFP-GluN1-1a-C420S-C454S/GluN2A (Rattus norvegicus, UniProt P35439+Q00959, C420S/C454S)
[16] = target: YFP-GluN1-1a-C744S-C798S/GluN2A (Rattus norvegicus, UniProt P35439+Q00959, C744S/C798S)

NCC(=O)O [glycine]
h (Hill coefficient), glycine [1]: 1.13 ± 0.08
h (Hill coefficient), glycine [2]: 0.98 ± 0.06
h (Hill coefficient), glycine [3]: 1.32 ± 0.04
h (Hill coefficient), glycine [4]: 1.20 ± 0.07
h (Hill coefficient), glycine [5]: 1.29 ± 0.04
h (Hill coefficient), glycine [6]: 1.18 ± 0.09
h (Hill coefficient), glycine (YFP-GluN1-1a/GluN2A): 1.31 ± 0.08
h (Hill coefficient), glycine [7]: 1.30 ± 0.05
h (Hill coefficient), glycine [8]: 1.10 ± 0.09
h (Hill coefficient), glycine (YFP-GluN1-1a/GluN2B): 1.05 ± 0.03
h (Hill coefficient), glycine [9]: 1.21 ± 0.09
h (Hill coefficient), glycine [10]: 1.23 ± 0.06
h (Hill coefficient), glycine [11]: 1.33 ± 0.06
h (Hill coefficient), glycine [12]: 1.12 ± 0.04
h (Hill coefficient), glycine (GluN1-4a/GluN2A): 1.37 ± 0.03
h (Hill coefficient), glycine [13]: 1.58 ± 0.10
h (Hill coefficient), glycine (GluN1-4a/GluN2B): 0.95 ± 0.05
h (Hill coefficient), glycine [14]: 0.86 ± 0.02
h (Hill coefficient), glycine [15]: 1.57 ± 0.10
h (Hill coefficient), glycine [16]: 1.24 ± 0.07
